The record followed here is ChEMBL document CHEMBL4390672, “Development of Covalent Ligands for G Protein-Coupled Receptors: A Case for the Human Adenosine A3 Receptor” (J Med Chem, 2019).

By UniProt entry, the sequences of proteins in these tests, tags left out.
UniProt P0DMS8, whole entry: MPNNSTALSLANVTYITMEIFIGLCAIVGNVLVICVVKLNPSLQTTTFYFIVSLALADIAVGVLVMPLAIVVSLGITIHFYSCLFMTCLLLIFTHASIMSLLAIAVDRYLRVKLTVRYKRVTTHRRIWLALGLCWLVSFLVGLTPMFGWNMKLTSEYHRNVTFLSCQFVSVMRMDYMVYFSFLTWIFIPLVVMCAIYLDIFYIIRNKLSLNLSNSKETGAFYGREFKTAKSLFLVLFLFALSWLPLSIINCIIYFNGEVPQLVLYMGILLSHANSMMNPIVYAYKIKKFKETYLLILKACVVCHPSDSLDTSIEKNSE
UniProt P0DMS8, whole entry Y265F: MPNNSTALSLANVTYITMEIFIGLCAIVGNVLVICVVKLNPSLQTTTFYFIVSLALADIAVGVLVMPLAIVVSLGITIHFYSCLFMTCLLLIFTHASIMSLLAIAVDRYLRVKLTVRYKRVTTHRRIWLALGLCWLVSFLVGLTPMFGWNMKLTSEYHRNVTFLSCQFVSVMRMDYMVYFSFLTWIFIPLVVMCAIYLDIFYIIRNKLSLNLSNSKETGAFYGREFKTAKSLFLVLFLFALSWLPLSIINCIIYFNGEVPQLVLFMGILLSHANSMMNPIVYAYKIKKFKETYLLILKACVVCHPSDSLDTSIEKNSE

For orientation: inhibition means the change of the read-out against control, counted positive when it falls. A high value points to a strong effect. One may read the IC50 as the concentration that inhibits the measured activity by half. Read a high IC50 as lower potency.

The target of assay [1] is T1, Adenosine receptor A2b (Homo sapiens) (UniProt P29275).
T1 sequence (whole entry): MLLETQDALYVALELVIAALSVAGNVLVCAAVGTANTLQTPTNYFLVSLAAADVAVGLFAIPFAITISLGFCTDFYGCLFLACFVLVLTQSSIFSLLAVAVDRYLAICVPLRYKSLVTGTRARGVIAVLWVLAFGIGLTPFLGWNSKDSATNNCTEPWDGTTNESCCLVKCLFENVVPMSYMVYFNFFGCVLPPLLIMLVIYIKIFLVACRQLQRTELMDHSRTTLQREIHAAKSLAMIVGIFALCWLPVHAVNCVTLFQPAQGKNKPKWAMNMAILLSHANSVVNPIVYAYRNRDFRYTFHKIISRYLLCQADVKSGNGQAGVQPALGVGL
As to the kind of experiment: Displacement of [3H]PSB-603 from human A2B adenosine receptor expressed in CHO cell membranes at 1 uM measured after 2 hrs by scintillation spectrometric method relative to control. The gist of the method: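 Single-point screen at 1 µM test compound against specific [3H]PSB-603 binding to membranes of CHO cells stably expressing hA2BAR, 2 h incubation at 25 °C. Reported as percent displacement from two experiments run in duplicate.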

Assay [2] has as its target T2, Adenosine receptor A3 (Homo sapiens, UniProt P0DMS8). Description: Displacement of [3H]PSB11 from human A3 adenosine receptor transiently expressed in CHOK1 cell membranes measured after 2 hrs by scintillation spectrometric method. The gist of the method:
(§1)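 CHO-K1 cells transfected by PEI (3:1, 20 µg DNA/dish) with WT or Y265F7.36 hA3AR, then given 5 mM sodium butyrate for 24 h before membrane preparation. Membranes incubated with ~10 nM [3H]PSB-11 and competitor for 2 h at 25 °C; filtration and counting; pIC50; three experiments in duplicate.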
In general terms: In a radioligand displacement assay an active substance lowers the binding of a labelled ligand.

Assay [3] deals with Adenosine receptor A3 (Homo sapiens), P0DMS8 [Y265F]. Description: (§2) Displacement of [3H]PSB11 from human A3 adenosine receptor Y265F (7.36) mutant transiently expressed in CHOK1 cell membranes measured after 2 hrs by scintillation spectrometric method. The gist of the method: as §1
Assay [4] has as its target Adenosine receptor A3 (Homo sapiens, UniProt P0DMS8, Y265F). Described as §2. The procedure, abridged:
as §1

Assay [5] deals with T2, Adenosine receptor A3. As to the kind of experiment: Competitive insurmountable antagonist activity at human A3 adenosine receptor expressed in CHO cell membranes assessed as inhibition of 2-Cl-IB-MECA-induced [35S]-GTPgammaS binding measured after 30 mins. It is filed as functional, cell-based. The conditions noted are these: read-out: pA2 (converted). On the technique in general: GTPγS is a poorly hydrolysed GTP analogue; its binding reports G protein activation.

For `CCCn1c(=O)c2c(nc3cc(OC)ccn32)n(CCCNC(=O)c2ccc(S(=O)(=O)F)cc2)c1=O`, the inhibition in assay [1] worked out at 0%. Moreover, the IC50 in assay [2] worked out at 27 nM; in assay [4] it was 1070 nM. Further, the pIC50(app) stood at 7.8 in assay [2] and 6 in assay [3]. For the same compound, the Kb in assay [5] was 39.8 nM.
